Protein sequences, listed by entry. Tags and fused reporters are not part of them. Lines headed by an entry give the natural chain unless they say otherwise; changes in a name come on top.
UniProt Q9Y5N1: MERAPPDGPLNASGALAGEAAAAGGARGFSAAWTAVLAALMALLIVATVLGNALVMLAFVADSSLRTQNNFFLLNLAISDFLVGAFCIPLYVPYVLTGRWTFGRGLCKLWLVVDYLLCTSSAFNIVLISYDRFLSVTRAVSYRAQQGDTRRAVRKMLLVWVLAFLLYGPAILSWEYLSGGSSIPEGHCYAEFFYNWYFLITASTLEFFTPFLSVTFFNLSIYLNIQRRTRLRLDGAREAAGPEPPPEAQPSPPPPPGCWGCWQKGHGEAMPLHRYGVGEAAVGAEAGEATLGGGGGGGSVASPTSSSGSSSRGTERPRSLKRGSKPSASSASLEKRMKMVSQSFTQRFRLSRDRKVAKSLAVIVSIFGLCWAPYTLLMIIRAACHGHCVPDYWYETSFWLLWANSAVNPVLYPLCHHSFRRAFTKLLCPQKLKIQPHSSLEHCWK

According to ChEMBL document CHEMBL4602733 (J Med Chem, 2020):

How the values were obtained:
[1] = molecular target: T1, Histamine H3 receptor (Homo sapiens, UniProt Q9Y5N1)
[2] = molecular target: T1, Histamine H3 receptor; test: biochemical

NC(=NCc1ccc(Cl)cc1)SCCCc1cnc[nH]1 [CLOBENPROPIT]
Ki [1]: 0.251 nM
Ki [2]: 2.51 nM
